Here are results for two substances from US9850366B2, “Epdxidized fatty acid alkyl ester plasticizers and methods for making epdxidized fatty acid alkyl ester plasticizers” (Dow Global Technologies LLC, priority 2012, dated 2017).

Data set [1] can be described thus: Water solubility (water content of plasticizer by Karl Fischer titration after mixing with water). The format is physicochemical. As to conditions: Table 1; water uptake of plasticizer at room temperature. The procedure: Water Solubility 20 mL of plasticizer is taken in a beaker and mixed with equal volume of distilled water. The mixture is stirred vigorously at room temperature and allowed to settle in a separating funnel. The mixture forms an emulsion which takes approximately 24 hours to form separate layers of organic and aqueous phases. After 48 hours, the two layers are separated. The aqueous layer is drained and the organic layer containing plasticizer and some water is recovered. The organic layer contains water in dissolved form as well as in the fine emulsion form. This layer is centrifuged at 7000 rpm for one hour. This step separates water trapped in the plasticizer in dispersed form. The plasticizer is further analyzed for water content with the help of wet chemistry methods. Carl Fischer titration method is used to determine the water content in plasticizer.

Data set [2] is classed as physicochemical. The procedure: Solubility in PVC is determined according to American Society for Testing and Materials (“ASTM”) method D 3367-98. In addition, the epoxidized fatty acid alkyl ester can have an oxirane oxygen value of at least 3.5, or in the range of from 4.0 to 7.8, as determined by American Oil Chemists' Society (“AOCS”) method Cd 9-57. […] Water solubility of the epoxidized fatty acid alkyl ester is determined according to the procedures described in the Test Methods section, below. Solubility in PVC Measure solubility in PVC according to ASTM D 3367-98. Test parameters, such as the design of centrifuge tubes, soak temperature, soak time, drainage of plasticizer, and centrifuge speed to remove excess plasticizer, are optimized to be able to capture differences in plasticizer absorption and solubilities of different plasticizers in PVC. Centrifuge tubes with a 0.8 mm diameter hole at the bottom are used for the test. […] The plasticizer absorbed by PVC is measured from the weight gain of PVC (after accounting for weight gain due to plasticizer absorbed by cotton). The equilibrium plasticizer solubility is calculated by subtracting the void volume (found to be equal to amount of acetylated castor wax absorbed by PVC, see PCT Published Application WO/2011/041380) from the plasticizer absorption.

In the case of “epoxidized methyl linolenate [CS2, reference compound]”, the “Water solubility (%)” value in data set [1] came to 4.77%. Regarding “epoxidized methyl linolenate [CS4, reference compound]”, in data set [2], the “Solubility in PVC (g/100 g PVC)” value is recorded as 223.6 g/100 g PVC.
